In PubChem BioAssay AID743238 (Broad Institute, 2013):
This is a selection; strong and weak results do not stand in their true shares. Active and inactive are the calls of the source.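 How the source made its calls: active means mean normalized replicate activation at least 10% and every replicate at or above 10%; inconclusive means only one of the two criteria met; inactive means mean below 10% and not all replicates reach 10%.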

Experiment: Xi reactivation inducers in mouse fibroblasts – imaging, XiGFP fibroblasts, GFP high-content imaging, set 2, primary screen (AID 743238);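 further: 0% = median of on-plate neutral control wells and 100% = ellipticine 6 µM median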
Conditions: % GFP-positive cells imaging, 3 d, at 7.58 µM, stronger effect = higher value, cells co-treated with 5-aza-dC sensitizer, scaled so ellipticine positive control = 100%
Procedure, shortened: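 assay system = SV40-immortalized XiGFP fibroblast cells, line 68-5-11 | buffer or medium = DMEM plus 5-aza-dC sensitizer | doses = single-point pinned compound dosing | times = 3-day compound exposure, then 15 min fixation at room temperature | benchmarks = positive control ellipticine, 6 µM final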

**Q.** Which activation does the source give for CN(C(=O)Cc1ccc(Cl)c(Cl)c1)[C@H]1CC[C@@]2(CCCO2)C[C@@H]1N1CCCC1 here?
**A.** inactive: 0.174%

**Q.** Which activation does the source give for CN(C)C(=O)c1cc([N+](=O)[O-])cc2c1-c1c(cc([N+](=O)[O-])cc1[N+](=O)[O-])C2=O here?
**A.** inactive: -0.0615%

**Q.** For NC(=O)Nc1ccc([As](=O)(O)O)cc1, which activation is on record?
**A.** inactive: 0.0615%

**Q.** With O=C(O)COc1ccc([As](=O)(O)O)cc1[N+](=O)[O-] as the molecule, how does the activation read?
**A.** inactive: 0.091%

**Q.** With Nc1ccccc1[As](=O)(O)c1ccccc1 as the molecule, how does the activation read?
**A.** inactive: 0.309%

**Q.** Which activation does the source give for O=P(Nc1nccs1)(Oc1ccccc1)Oc1ccccc1 here?
**A.** inactive: 0.02%

**Q.** With CN(C)C(=O)Oc1noc2ccccc12 as the molecule, how does the activation read?
**A.** inactive: 0.134%

**Q.** With O=c1c2cc([N+](=O)[O-])ccc2[nH]c2c([N+](=O)[O-])cc([N+](=O)[O-])cc12 as the molecule, how does the activation read?
**A.** inactive: 0%

**Q.** For Cc1ccccc1OP(=O)(Nc1ccccn1)Oc1ccccc1C, which activation is on record?
**A.** inactive: 0.099%

**Q.** With CC(NC(=O)COC(=O)C(O)(c1ccccc1)c1ccccc1)c1ccccc1 (stereo unspecified) as the molecule, how does the activation read?
**A.** inactive: 0.247%

**Q.** For O=C(OC1CN2CCC1CC2)c1ccccc1 (stereo unspecified), which activation is on record?
**A.** inactive: -0.047%

**Q.** With Cc1ccc(OP(=O)(Nc2ccccn2)Oc2ccc(C)cc2)cc1 as the molecule, how does the activation read?
**A.** inactive: 0%

**Q.** With CC(=O)NC(SC(=S)N(CC(C)C)CC(C)C)C(Cl)(Cl)Cl (stereo unspecified) as the molecule, how does the activation read?
**A.** inactive: 0.093%

**Q.** Which activation does the source give for O=P1(N(CCCl)CCCl)OCCC2CCCCN21 (stereo unspecified) here?
**A.** inactive: -0.023%

**Q.** For Cc1ccc(NP(=O)(Oc2cccc(C)c2)Oc2cccc(C)c2)nc1, which activation is on record?
**A.** inactive: 0.027%

**Q.** Which activation does the source give for c1ccc(-c2nn[nH]n2)c(-c2nn[nH]n2)c1 here?
**A.** inactive: 0%

**Q.** For O=C(NC1CCS(=O)(=O)C1)NP(=S)(Oc1ccccc1)Oc1ccccc1 (stereo unspecified), which activation is on record?
**A.** inactive: -0.015%

**Q.** Which activation does the source give for CCNC(=S)/N=C(\N)N[N+](=O)[O-] here?
**A.** inactive: 0.131%

**Q.** For CC(=O)Nc1ccc(Oc2c([N+](=O)[O-])cc([N+](=O)[O-])cc2[N+](=O)[O-])cc1, which activation is on record?
**A.** inactive: -0.018%

**Q.** With CC(=O)Nc1ccc([As](=O)(O)O)c(O)c1 as the molecule, how does the activation read?
**A.** inactive: 0.114%

**Q.** Which activation does the source give for C[C@@H]1C=CCP(=O)(Oc2ccccc2)O1 (stereo partly specified) here?
**A.** inactive: -0.281%

**Q.** With C[C@H]1OP(=O)(Oc2ccccc2)C[C@@H]2O[C@@H]21 (stereo partly specified) as the molecule, how does the activation read?
**A.** inactive: 0.143%

**Q.** For Cc1ccccc1CN(C)C(=O)COC(=O)C(O)(c1ccccc1)c1ccccc1, which activation is on record?
**A.** inactive: 0.051%

**Q.** For COC(=O)C1(C)COP(=O)(NCc2ccccc2)OC1 (stereo unspecified), which activation is on record?
**A.** inactive: 0.101%

**Q.** With N#C/C(=C\c1ccc(N(CCBr)CCBr)cc1)C(N)=O as the molecule, how does the activation read?
**A.** inactive: 0.579%

**Q.** For CC(=O)c1ccc(N2CC2c2ccncc2)cc1 (stereo unspecified), which activation is on record?
**A.** inactive: 0.094%

**Q.** With CC(C)(C)C(=O)NC(Sc1ccccc1)C(Cl)(Cl)Cl (stereo unspecified) as the molecule, how does the activation read?
**A.** inactive: 0.0015%

**Q.** Which activation does the source give for CCc1cc(O)c([N+](=O)[O-])c(C)c1[N+](=O)[O-] here?
**A.** inactive: 0.234%

**Q.** With CCOc1ccc(C2=NCC(CBr)S2)cc1 (stereo unspecified) as the molecule, how does the activation read?
**A.** inactive: 0.0275%

**Q.** For CC(C)C(=O)NC(Sc1ccccc1)C(Cl)(Cl)Cl (stereo unspecified), which activation is on record?
**A.** inactive: -0.0455%

**Q.** For Nc1ccc([As](=O)(O)c2ccc([N+](=O)[O-])cc2)cc1, which activation is on record?
**A.** inactive: -0.05%

**Q.** For C(Cc1nn[nH]n1)Cc1nn[nH]n1, which activation is on record?
**A.** inactive: -0.288%

**Q.** For C/C(N)=N\P(=O)(OCc1ccccc1)OCc1ccccc1, which activation is on record?
**A.** inactive: 0.557%

**Q.** With O=[As](O)(c1ccccc1)c1ccc(O)cc1 as the molecule, how does the activation read?
**A.** inactive: 0.22%

**Q.** Which activation does the source give for O=[N+]([O-])c1ncn(CCn2cnc([N+](=O)[O-])n2)n1 here?
**A.** inactive: -0.0235%

**Q.** Which activation does the source give for CC(=O)NC(SC(=S)N(C)C)C(Cl)(Cl)Cl (stereo unspecified) here?
**A.** inactive: 1.01%

**Q.** Which activation does the source give for C[C@H]1OP(=O)(Oc2ccccc2)[C@H](O)[C@H](O)[C@H]1N=[N+]=[N-] (stereo partly specified) here?
**A.** inactive: 0.0305%

**Q.** Which activation does the source give for O=P(Nc1nc2ccccc2s1)(c1ccccc1)c1ccccc1 here?
**A.** inactive: 0.039%

**Q.** With CN(C)C1(CNC(=O)c2ccc(Cl)c(S(N)(=O)=O)c2)CCCCC1 as the molecule, how does the activation read?
**A.** inactive: 0.0085%

**Q.** Which activation does the source give for O=P(Nc1ccccn1)(c1ccc(Br)cc1)c1ccc(Br)cc1 here?
**A.** inactive: -0.0425%

**Q.** Which activation does the source give for Nc1ccc(CCCCOc2ccccc2)cc1 here?
**A.** inactive: 0.121%

**Q.** Which activation does the source give for COc1ccc(N)c([N+](=O)[O-])c1[N+](=O)[O-] here?
**A.** inactive: 0.0015%

**Q.** For O=C(O)CNc1ccc([As](=O)(O)O)cc1, which activation is on record?
**A.** inactive: -0.108%

**Q.** Which activation does the source give for O=[N+]([O-])c1cccc(NC2=NCC(CBr)S2)c1 (stereo unspecified) here?
**A.** inactive: -0.104%

**Q.** Which activation does the source give for COC(=O)C1(C)COP(=O)(Nc2ccccc2)OC1 (stereo unspecified) here?
**A.** inactive: 0.188%

**Q.** Which activation does the source give for O=[N+]([O-])c1ncn(CCn2ncnc2[N+](=O)[O-])n1 here?
**A.** inactive: -0.155%

**Q.** Which activation does the source give for CC(C)(C)C(=O)NC(Sc1ccncn1)C(Cl)(Cl)Cl (stereo unspecified) here?
**A.** inactive: -0.0285%

**Q.** For O=C(Nc1cc([As](=O)(O)O)ccc1O)c1ccccc1, which activation is on record?
**A.** inactive: -0.068%

**Q.** Which activation does the source give for O=P1(N(CCCl)CCCl)OCCCS1 (stereo unspecified) here?
**A.** inactive: 0.084%

**Q.** Which activation does the source give for c1cc(-c2nn[nH]n2)ccc1-c1nn[nH]n1 here?
**A.** inactive: 0%

**Q.** For CC(C)=N/N=C(\N)N[N+](=O)[O-], which activation is on record?
**A.** inactive: 0%

**Q.** Which activation does the source give for CC(C)c1nc(Nc2ccccc2)n(P(=O)(N(C)C)N(C)C)n1 here?
**A.** inactive: -0.163%

**Q.** For CCN(/C(=N/P(=O)(N1CCOCC1)N1CCOCC1)N1CCOCC1)c1ccc(OC)cc1, which activation is on record?
**A.** inactive: -0.011%

**Q.** Which activation does the source give for C[N+]1=C2C=CC=CC=C2SC12C([N+](=O)[O-])=CC([N+](=O)[O-])=C[C-]2[N+](=O)[O-] (stereo unspecified) here?
**A.** inactive: 1.1%

**Q.** With Nc1ccc([As](=O)(O)c2ccc(N)cc2)cc1 as the molecule, how does the activation read?
**A.** inactive: -0.0285%

**Q.** Which activation does the source give for O=[N+]([O-])c1cc([N+](=O)[O-])c(CCNc2ccccc2)c([N+](=O)[O-])c1 here?
**A.** inactive: 1.1%

**Q.** Which activation does the source give for Cc1ccc(NP(=O)(Oc2ccccc2)Oc2ccccc2)nc1 here?
**A.** inactive: -0.036%

**Q.** Which activation does the source give for COc1ccc(C2=NCC(CBr)S2)cc1 (stereo unspecified) here?
**A.** inactive: 0%

**Q.** For O=C(NC(Sc1ccncn1)C(Cl)(Cl)Cl)c1ccccc1 (stereo unspecified), which activation is on record?
**A.** inactive: -0.0185%

**Q.** With Nc1cc(N)c2nonc2c1[N+](=O)[O-] as the molecule, how does the activation read?
**A.** inactive: -0.0565%

**Q.** For Clc1ccc(Cl)c(NC2=NCC(CBr)S2)c1 (stereo unspecified), which activation is on record?
**A.** inactive: 0%

**Q.** For Cc1ccc(OP(=O)(Nc2nccs2)Oc2ccc(C)cc2)cc1, which activation is on record?
**A.** inactive: -0.0885%

**Q.** With COc1ccccc1OP(=O)(Nc1ccc(C)cn1)Oc1ccccc1OC as the molecule, how does the activation read?
**A.** inactive: 0%

**Q.** With Cc1ccc(N/C(=N/P(=O)(N2CCOCC2)N2CCOCC2)N2CCOCC2)cc1 as the molecule, how does the activation read?
**A.** inactive: -0.056%

**Q.** Which activation does the source give for CN(C(=O)Cc1ccc(Cl)c(Cl)c1)[C@H]1CCCC[C@H]1N1CCCC1 here?
**A.** inactive: -0.0395%

**Q.** With NC(=O)c1cc([N+](=O)[O-])cc([N+](=O)[O-])c1N as the molecule, how does the activation read?
**A.** inactive: 0.364%

**Q.** With Nc1cccc2ccc([As](=O)(O)O)cc12 as the molecule, how does the activation read?
**A.** inactive: -0.0175%

**Q.** For CCN(N=Nc1nonc1N)c1nonc1N, which activation is on record?
**A.** inactive: -0.123%

**Q.** Which activation does the source give for CN(C(=O)Cc1ccc(Cl)c(Cl)c1)[C@H]1CCCC[C@@H]1N1CCCC1 here?
**A.** inactive: -0.005%

**Q.** For Cc1ccc(NP(=O)(Oc2ccccc2F)Oc2ccccc2F)nc1, which activation is on record?
**A.** inactive: 0.124%

**Q.** Which activation does the source give for Cc1cc(SC(NC(=O)c2ccc(F)cc2)C(Cl)(Cl)Cl)ncn1 (stereo unspecified) here?
**A.** inactive: 0.144%

**Q.** Which activation does the source give for CN(C)P(=O)(N(C)C)n1c(Nc2ccccc2)nnc1-c1ccccc1 here?
**A.** inactive: 0.191%

**Q.** With O=P(Nc1nc2ccc(Cl)cc2s1)(c1ccccc1)c1ccccc1 as the molecule, how does the activation read?
**A.** inactive: 0.325%

**Q.** For CCCC1OP(N)(=O)OCC1CC (stereo unspecified), which activation is on record?
**A.** inactive: 0.027%

**Q.** For O=C(O)c1ccccc1[As](=O)(O)O, which activation is on record?
**A.** inactive: 0.116%

**Q.** Which activation does the source give for CC(=O)Nc1ccc([As](=O)(O)O)cc1 here?
**A.** inactive: 0.2%
